The target of one test is hHv1 (Homo sapiens, UniProt Q96D96).

The chains behind the UniProt entries cited, without tags or fusion partners. Where a name states a change or a piece, a line headed by the entry shows the natural chain unless it says otherwise.
UniProt Q96D96: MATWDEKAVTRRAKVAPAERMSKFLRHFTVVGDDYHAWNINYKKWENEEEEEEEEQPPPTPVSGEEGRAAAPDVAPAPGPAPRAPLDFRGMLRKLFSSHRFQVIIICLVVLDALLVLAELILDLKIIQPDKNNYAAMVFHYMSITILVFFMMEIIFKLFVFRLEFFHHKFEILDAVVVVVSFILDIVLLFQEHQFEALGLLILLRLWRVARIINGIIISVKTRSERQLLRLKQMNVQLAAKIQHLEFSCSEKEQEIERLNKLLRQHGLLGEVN

One substance from patent US12540163B2 (priority 2021, dated 2026) can be followed below.

For the substance ethylene glycol tetraacetic acid [EGTA], in the test with hHv1 in human sperm, the “Sperm H+ current V1/2 after application” value was −10 ± 4 mV and the “Sperm H+ current V1/2 shift” value is 27 mV. Also, the “hHv1 in HEK293T cells V1/2 after application” value at hHv1 is −25±2 mV.
